Measured values taken from patent publication US20120252853A1, “Positive allosteric modulators of nicotinic acetylcholine receptor” (H. Lundbeck A/S, priority 2011, published 2012).

By UniProt entry, the sequences of proteins in these tests, tags left out. Residues count along the entry.
UniProt P36544, 23-502 limits assumed: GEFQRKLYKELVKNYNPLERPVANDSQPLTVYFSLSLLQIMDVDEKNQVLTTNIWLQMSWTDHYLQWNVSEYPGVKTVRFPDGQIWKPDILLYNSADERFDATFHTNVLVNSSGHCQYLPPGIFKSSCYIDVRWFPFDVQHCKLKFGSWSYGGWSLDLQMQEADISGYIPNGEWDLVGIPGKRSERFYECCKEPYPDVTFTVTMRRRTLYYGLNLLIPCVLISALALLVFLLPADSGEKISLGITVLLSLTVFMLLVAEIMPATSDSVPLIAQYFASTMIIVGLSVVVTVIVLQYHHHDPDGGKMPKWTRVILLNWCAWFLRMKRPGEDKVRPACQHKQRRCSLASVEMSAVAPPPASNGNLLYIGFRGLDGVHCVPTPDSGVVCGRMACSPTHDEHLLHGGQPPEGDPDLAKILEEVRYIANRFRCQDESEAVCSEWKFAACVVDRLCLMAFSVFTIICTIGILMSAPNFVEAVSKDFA

Target: human α7 receptor (Homo sapiens, UniProt P36544)
Assay: α7 NNR flux assay (FDSS Ca assay)
Conditions: positive allosteric modulation; rat GH4C1 cell line stably expressing human α7; acetylcholine 20 μM; % modulation relative to PNU-120596 set to 100%
Experimental: In this version of the assay, the human α7 receptor is stably expressed in the rat GH4C1 cell line. The assay was used to identify positive allosteric modulators (PAMs) of the α7 receptor. Activation of the channel was measured by loading cells with the calcium-sensitive fluorescent dye Calcium-4 (Assay kit from Molecular Devices), and then measuring real-time changes in fluorescence upon treatment with test compounds.
The cell line ChanClone GH4C1-nAChRalpha7 from Genionics was seeded from frozen stock in 384-well plates in culture media 2-3 days before experiment to form an approximately 80% confluent layer on the day of experiment.
The cell culture were split into “22.5 cm×22.5 cm”-plates with approximately 100×10^3 cells/cm^2. After four days incubation in a humidified incubator at 37° C. and 5% CO2, it had grown to an 80-90% confluent layer, and the cells were harvested.
Two or three days before the experiment the cells were seeded in 384 well plates from Greiner bio-one (781946, CELLCOAT, Poly-D-Lysine, black, μClear). […]
Culture media were removed from the cell plates and 20 μL loading buffer was added in each well. […] Now the cell plates were ready to run in the Functional Drug Screening System (FDSS) The assay buffer was HBSS with 20 mM HEPES, pH 7.4 and 3 mM CaCl2. […]
Results were calculated as % modulation of test compound compared to the reference PNU-120596 set to 100%.

Molecule Cc1cc2cc(CNC(=O)c3oc(C)nc3C)ccc2[nH]1 has an EC50 of 9.5 µM.
